ChEMBL document CHEMBL4020802, “Fused bi-heteroaryl substituted hydantoin compounds as TACE inhibitors” (Bioorg Med Chem Lett, 2017)
pIC50: −log10 of the molar value.

Tested on: Blood
Assay: Antiinflammatory activity in human whole blood assessed as inhibition of LPS-induced TNF-alpha release preincubated for 1 hr followed by LPS addition after 3.5 hrs by ELISA method
Format: functional

SMILES: COc1ccc2c(c1)C(=O)N(C[C@@]1(c3cc4nc(N(c5cn[nH]c5)C5CCN(C)CC5)ccc4o3)NC(=O)NC1=O)C2
- pIC50: 6.73
